Test results taken from article PMC10145973, “Genomic Insights into Bacterial Resistance to Proline-Rich Antimicrobial Peptide Bac7” (Membranes, 2023).
Where a SMILES comes first, the peptide text is derived from it.

What was measured:
Conditions in all cases: salt-containing MHB with ampicillin 100 µg/mL and L-arabinose 0.1 g/L
[1] = system: E. coli BW25113 ΔwaaP (pBAD-WaaP^N159H)
[2] = system: E. coli BW25113 ΔwaaP (pBAD-mScarlet)
[3] = system: E. coli BW25113 ΔwaaP (pBAD-WaaP)

With `CC[C@H](C)[C@H](NC(=O)[C@H](CCCNC(=N)N)NC(=O)[C@@H](N)CCCNC(=N)N)C(=O)N[C@@H](CCCNC(=N)N)C(=O)N1CCC[C@H]1C(=O)N[C@@H](CCCNC(=N)N)C(=O)N1CCC[C@H]1C(=O)N1CCC[C@H]1C(=O)N[C@@H](CCCNC(=N)N)C(=O)N[C@@H](CC(C)C)C(=O)N1CCC[C@H]1C(=O)N[C@@H](CCCNC(=N)N)C(=O)N1CCC[C@H]1C(=O)N[C@@H](CCCNC(=N)N)C(=O)N1CCC[C@H]1C(=O)N[C@@H](CCCNC(=N)N)C(=O)N1CCC[C@H]1C(=O)N[C@@H](CC(C)C)C(=O)N1CCC[C@H]1C(=O)N[C@@H](Cc1ccccc1)C(=O)N1CCC[C@H]1C(=O)N[C@@H](CCCNC(=N)N)C(=O)O` [Bac7_1-22] (H-RRIRPRPPRLPRPRPRPLPFPR-OH) the “MIC, MHB +0.9% NaCl” value [1] was 0.5−1 μM, the “MIC, MHB +0.9% NaCl” value [2] was 1 µM and the “MIC, MHB +0.9% NaCl” value [3] was 0.125 µM.
